Assay results reported in patent US11413278B2, “Compounds and methods for promoting stress resistance” (priority 2015, dated 2022).
Where two headings read alike, the source gives them in different places.

Tests used:
[1] = tested on: FOXO3; assay: qPCR analysis of FOXO3-regulated genes; assay type: cell-based; conditions: Homo sapiens
Protocol: (§1) For qPCR analysis, WI-38 cells were treated with small molecules (at 10 μM) (biological quadruplicates) for 24 hrs and processed for RNA isolation and reverse transcription (RT) with the Cells-to-Ct Kit (Life Technologies), following manufacturer's instructions. RT products were diluted with H2O and used for qPCR analysis on an ABI 7300 system (Life Technologies) (technical triplicates). Relative expression levels of target genes were normalized to the genes B2M, PPIA and GAPDH. To knock down the expression of FOXO3 or NRF2, WI-38 cells were transfected, using the RNAiMAX reagents (Life Technologies), with siRNA oligos (at 10 nM final concentration, 10 ml culture medium) for FOXO3 (Life Technologies) or NRF2 (Integrated DNA Technologies) on 10-cm petri dishes for 36 hrs, and then detached and aliquoted onto 96-well (for qPCR analysis) or 384-well plates (for H2O2-stress treatment). ˜24 hrs later, small molecules were introduced and incubated with cells for 24 hrs. Cells were then either processed with the Cells-to-Ct Kit to prepare RT products for qPCR analysis or subjected to H2O2 (700 μM) for 3 hrs and assayed for viability. The knockdown efficiency of FOXO3 or NRF2 was checked at 36 hrs post-transfection and at the end as well.
(§2) For qPCR analysis, WI-38 cells were treated with small molecules (at 10 μM) (biological quadruplicate) for 24 hrs and processed for RNA isolation and reverse transcription (RT) with the Cells-to-Ct Kit (Life Technologies), following manufacturer's instructions. RT products were diluted with H2O and used for qPCR analysis on a LightCycler 480 system (Roche) (technical triplicates). Relative expression levels of target genes were normalized to the genes B2M, PPIA and GAPDH. To knock down the expression of FOXO3 or NRF2, WI-38 cells were transfected with siRNA oligos (at 10 nM final concentration) for FOXO3 (Life Technologies) or NRF2 on 10-cm petri dish for 36 hrs, and then detached and aliquoted onto 96-well plates. ˜24 hrs later, small molecules were introduced and incubated with cells for 24 hrs. Cells were then processed with the Cells-to-Ct Kit to prepare RT products for qPCR analysis. The knockdown efficiency of FOXO3 or NRF2 was checked at 36 hrs post-transfection and at the end as well.
Many perturbations that increase lifespan and stress resistance in animals do so in a FOXO-dependent fashion (Kenyon, 2010c). Humans have several FOXO genes, but FOXO3, which promotes stress resistance in mammalian cell culture (Kops et al., 2002; Nemoto and Finkel, 2002; Tran et al., 2003), is the one that has been linked to exceptional longevity in humans (Anselmi et al., 2009; Flachsbart et al., 2009; Li et al., 2009; Pawlikowska et al., 2009; Soerensen et al., 2010; Willcox et al., 2008). FOXO1, in contrast, appears to be responsible for some symptoms of diabetes in mouse models (Cheng and White, 2011). For this reason, applicants have focused on analyzing potential ability of our small molecules to activate FOXO3. […] Another 4 molecules (Gr-7A, Gr-7C, O12 and O23) could induce robust expression (greater than 1.5-fold) of at least 2 FOXO3 target genes.

[2] = tested on: WI-38 cells; conditions: normalized ATP measurement
[3] = tested on: NRF2; assay: qPCR analysis of NRF2-regulated genes; assay type: cell-based; conditions: Homo sapiens
Protocol: as §1, §2
NRF2/SKN-1, the oxidative stress and xenobiotic phase 2 detoxification protein, can extend animal lifespan (Sykiotis and Bohmann, 2008; Tullet et al., 2008). Applicants analyzed these small molecules for their ability to increase the expression of NRF2-regulated genes, including HMOX1 (heme oxygenase (decycling) 1; anti-oxidant), NQO1 (NAD(P)H dehydrogenase, quinone 1; phase 2 detoxification enzyme), GCLC (glutamate-cysteine ligase, catalytic) and GSTM1 (glutathionine S transferase) (Hur and Gray, 2011; Suzuki et al., 2013).

[4] = tested on: mTOR; assay: mTOR inhibition (RPS6 phosphorylation status), In-Cell Western; assay type: cell-based, human; conditions: n=4
[5] = tested on: WI-38 cells; assay: MMS resistance assay; assay type: cell-based; conditions: Homo sapiens, 12 h, normalized ATP measurement
Protocol: (§3) For many stress conditions tested previously, one significant correlation to longevity is the cellular resistance to H2O2 or CdCl2. Applicants then tested these small molecules, at five different final concentrations (0.25 μM to 20 μM), for cadmium and MMS resistance in WI-38 cells.
(§4) The setups on 384-well plates and incubation times were the same as for H2O2 until the time of incubation with the stressors, which was 12 hours for both cadmium and MMS assays. Applicants tested several conditions, including conditions used to assay fibroblasts from long-lived animals (Salmon et al., 2005). These conditions produced better results with the positive controls (KEAP1 and AKT1 siRNAs) in the MMS assay. Thus, for MMS, the cells were shifted from growth media—OptiMEM+10% FBS, to DMEM (Gibco)+2% BSA (no serum) just before adding small molecules, which occurred 24 hours before MMS addition.
(§5) Isolated small molecules were tested for MMS and cadmium resistance twice in two independent assays. Each small molecule was analyzed at five different concentrations (0.25 μM to 20 μM final concentration), with technical triplicates for each dose. Data were analyzed using a global variance t-test.

[6] = tested on: WI-38 cells; assay: CdCl2 (cadmium) resistance assay; assay type: cell-based; conditions: Homo sapiens, 12 h, normalized ATP measurement
Protocol: as §3, §4, §5

[7] = tested on: C. elegans; assay type: in vivo, Caenorhabditis elegans
[8] = tested on: human dermal fibroblast (HDF) primary cells; assay: H2O2-resistance in primary human dermal fibroblasts; assay type: cell-based

`Oc1ccccc1-c1noc(-c2ccccc2O)n1` [O27] gave a fold induction at 10 µM ([1]; 24 h, Assay 10(m), at 10 uM, qPCR, read-out: Induction of FOXO3-regulated genes: SESN1 normalized fold-change) of 1.54, a fold induction at 10 µM ([1]; WI-38, 24 h, read-out: SESN1 expression) of over 1.5 and a fold induction at 10 µM ([1]; 10 μM, 24 hrs, WI-38 cells, qPCR, normalized to B2M, n = 4, read-out: SESN1 expression, normalized fold change (FOXO3-regulated gene)) of 1.54. For the same molecule, the fold induction at 10 µM ([1]; WI-38 cells, 10 μM, 24 hrs, n=4, qPCR normalized by B2M, read-out: DDB1 Normalized fold change) was 1.05, the fold induction at 10 µM ([1]; WI-38 cells, 10 μM, 24 hrs, n=4, qPCR normalized by B2M, read-out: GADD45A Normalized fold change) was 1.46 and the fold induction at 10 µM ([1]; WI-38 cells, 10 μM, 24 hrs, n=4, qPCR normalized by B2M, read-out: SESN1 Normalized fold change) was 1.54. The fold induction at 10 µM ([1]; fold change, qPCR, WI-38 cells, 10 μM, 24 hrs, read-out: Summary of effects on FOXO3-regulated genes: SESN1) was 1.54, the fold induction at 10 µM ([1]; qPCR, WI-38 cells, 10 μM, n=4, 24 hrs, normalized by B2M, read-out: CAT Normalized fold change) was 1.13 and the fold induction at 10 µM ([1]; qPCR, WI-38 cells, 10 μM, n=4, 24 hrs, normalized by B2M, read-out: SOD2 Normalized fold change) was 1.15. For the same molecule, the fold induction at 10 µM ([1]; qPCR, WI-38 cells, 10 μM, n=4, 24 hrs, normalized by B2M, read-out: TXNIP Normalized fold change) was 0.882, the “No H2O2 stress treatment, at 10 uM (fold change)” value [2] was 0.75 fold change and the fold induction at 10 µM ([3]; 24 h, Assay 12(o), at 10 uM, qPCR, read-out: Induction of NRF2-regulated genes: HMOX1 normalized fold-change) was 1.71. For the same molecule, the fold induction at 10 µM ([3]; rounded fold change, WI-38 cells, 10 μM, 24 hrs (RP11 for Gr-1D, RP29 for Gr-4D), read-out: Summary of effects on NRF2-regulated genes: HMOX1) was 1.71, the fold induction at 10 µM ([3]; 10 μM, 24 hrs, WI-38 cells, qPCR, normalized to B2M, n = 4, read-out: HMOX1 expression, normalized fold change (NRF2-regulated gene)) was 1.71 and the fold induction at 10 µM ([3]; WI-38 cells, 10 μM, 24 hrs, n=4, qPCR normalized by B2M, read-out: GCLC Normalized fold change) was 1.25. For the same molecule, the fold induction at 10 µM ([3]; WI-38 cells, 10 μM, 24 hrs, n=4, qPCR normalized by B2M, read-out: GSTM1 Normalized fold change) was 1.14, the fold induction at 10 µM ([3]; WI-38 cells, 10 μM, 24 hrs, n=4, qPCR normalized by B2M, read-out: HMOX1 Normalized fold change) was 1.71 and the fold induction at 10 µM ([3]; WI-38 cells, 10 μM, 24 hrs, n=4, qPCR normalized by B2M, read-out: NQO1 Normalized fold change) was 1.33. For the same molecule, the “Exp. 2, normalized reduction in p-RPS6/RPS6 ratio” value ([4]; Exp. 2, at 10 μM, In-Cell Western) was ~30% (−), at 10 μM, the “Exp. 3, normalized reduction in p-RPS6/RPS6 ratio” value ([4]; Exp. 3, In-Cell Western) was ~86% (−), at 20 μM and the fold induction at 10 µM ([5]; Exp. 1, WI-38 cells, read-out: Exp. 1, under MMS stress treatment, at 10 uM (fold change)) was 0.74. It also gave a fold induction at 10 µM ([5]; Exp. 2, WI-38 cells, read-out: Exp. 2, under MMS stress treatment, at 10 uM (fold change)) of 2.45, a fold induction at 10 µM ([6]; Exp. 1, WI-38 cells, read-out: Exp. 1, under Cd2Cl2 stress treatment, at 10 uM (fold change)) of 1.68 and a fold induction at 10 µM ([6]; Exp. 2, WI-38 cells, read-out: Exp. 2, under Cd2Cl2 stress treatment, at 10 uM (fold change)) of 1.89. For the same molecule, the “N = H2O2-resistance in woms” value ([7]; score) was 0, the “L = H2O2-resistance in worms” value ([7]; summary score) was 0 and the fold induction at 10 µM ([8]; Experiment 1, HDF cells, read-out: Experiment 1, HDF cells (under H2O2 stress treatment), at 10 uM (fold change)) was 182. The fold induction at 10 µM ([8]; Experiment 2, HDF cells, read-out: Experiment 2, HDF cells (under H2O2 stress treatment), at 10 uM (fold change)) was 46.1.
